Assay results published in patent publication US11008317B2, “Triazolopyridine inhibitors of myeloperoxidase and/or EPX” (priority 2016, dated 2021).

Chains of the proteins cited; added tags and fusions are not shown. Residues count along the entry.
UniProt P05164, 49-745 limits assumed: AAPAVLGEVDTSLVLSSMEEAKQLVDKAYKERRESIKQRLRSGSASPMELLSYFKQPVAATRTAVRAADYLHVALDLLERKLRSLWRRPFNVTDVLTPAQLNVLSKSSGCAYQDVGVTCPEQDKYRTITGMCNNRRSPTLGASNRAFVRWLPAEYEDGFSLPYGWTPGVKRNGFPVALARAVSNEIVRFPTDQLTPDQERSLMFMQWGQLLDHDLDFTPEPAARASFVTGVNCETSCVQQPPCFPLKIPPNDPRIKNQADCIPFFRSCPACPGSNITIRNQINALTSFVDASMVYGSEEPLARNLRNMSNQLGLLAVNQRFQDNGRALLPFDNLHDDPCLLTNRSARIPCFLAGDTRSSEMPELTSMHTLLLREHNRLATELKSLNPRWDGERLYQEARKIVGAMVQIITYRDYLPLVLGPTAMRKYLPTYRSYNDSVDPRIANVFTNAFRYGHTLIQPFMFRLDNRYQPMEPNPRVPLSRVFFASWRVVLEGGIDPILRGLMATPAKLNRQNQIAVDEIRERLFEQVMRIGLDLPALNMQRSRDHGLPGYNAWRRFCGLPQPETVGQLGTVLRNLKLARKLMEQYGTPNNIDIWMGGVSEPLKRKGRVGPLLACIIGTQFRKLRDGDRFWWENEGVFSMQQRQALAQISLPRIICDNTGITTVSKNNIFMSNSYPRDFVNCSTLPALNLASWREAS

How the values were obtained:
myeloperoxidase [1] = biological target: T1, myeloperoxidase (Homo sapiens, UniProt P05164); settings: read-out: Amplex Red Assay IC50 value; MPO peroxidation, potency range class
myeloperoxidase [2] = biological target: T1, myeloperoxidase; assay: MPO Chlorination Assay (APF Assay); settings: read-out: APF Assay IC50 value, potency range class

In the case of `Nc1cc(C(CCNC23CC4CC(C2)CC(c2ccccc2)(C4)C3)c2ccccc2)c2nn[nH]c2n1` (centres unmarked), the IC50 (myeloperoxidase [1]) is reported as 101 to 999 nM and the IC50 (myeloperoxidase [2]) is reported as 1 to 100 nM.

Read-outs that look alike come from different tables or passages of the source.
